From PubChem BioAssay AID1645860 (Buhrlage Lab, Dana-Farber Cancer Institute and Novartis …, 2021) come the findings set out here.

Chains of the proteins cited; added tags and fusions are not shown. Lines headed by an entry give the natural chain unless they say otherwise; changes in a name come on top.
UniProt Q70CQ3: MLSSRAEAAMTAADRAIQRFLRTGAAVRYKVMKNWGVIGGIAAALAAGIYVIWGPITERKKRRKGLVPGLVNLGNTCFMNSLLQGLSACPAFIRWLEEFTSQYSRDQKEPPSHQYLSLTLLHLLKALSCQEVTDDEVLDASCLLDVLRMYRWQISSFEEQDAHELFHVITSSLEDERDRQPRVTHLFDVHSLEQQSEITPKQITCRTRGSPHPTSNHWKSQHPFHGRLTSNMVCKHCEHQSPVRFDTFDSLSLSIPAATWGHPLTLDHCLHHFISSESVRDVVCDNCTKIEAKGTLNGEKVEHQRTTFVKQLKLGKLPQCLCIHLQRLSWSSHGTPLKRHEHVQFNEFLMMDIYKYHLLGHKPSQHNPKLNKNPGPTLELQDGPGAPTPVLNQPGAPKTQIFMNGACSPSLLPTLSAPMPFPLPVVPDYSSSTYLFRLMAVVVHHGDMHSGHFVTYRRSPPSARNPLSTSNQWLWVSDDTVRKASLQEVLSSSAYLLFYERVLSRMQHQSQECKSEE

The entries are a selection whose mix differs from that of the whole data set. Active and inactive are the calls of the source. Cut-off read from the data, not from the text of the source: active = inhibition above about 30%; inactive = the rest.

The experiment concerns the target Ubiquitin carboxyl-terminal hydrolase 30 (Homo sapiens) (UniProt Q70CQ3). In words: blocks human USP30 ubiquitin-rhodamine cleavage (AID 1645860). As to conditions: purified USP30, Ub-rhodamine cleavage fluorescence; at 25 µM; hits give high values.
For orientation: inhibition means the change of the read-out against control, counted positive when it falls. With `CS(=O)(=O)c1ccc(C(=O)N(Cc2cccnc2)C2CCN(CCc3ccc(Cl)cc3)CC2)cc1`, the inhibition was inactive: -184%.

Consider `COc1ccc(CCN2CCC(N(Cc3ccco3)C(=O)c3ccc(S(C)(=O)=O)cc3)CC2)cc1`, for which the inhibition was inactive: -79.3%.

For the compound `CN1C(=O)C2C(NC(=NCc3ccco3)N2CCc2ccccc2)N(C)C1=O` (stereo unspecified), the inhibition is inactive: -18.4%.

Regarding `N#Cc1cccc(C(=O)N(Cc2ccco2)C2CCN(CCc3ccccn3)CC2)c1`, the inhibition is inactive: 0.231%.

As to `N#Cc1cccc(C(=O)N(Cc2cccnc2)C2CCN(CCc3ccccn3)CC2)c1`, the inhibition is inactive: -113%. In the case of `CS(=O)(=O)c1ccc(C(=O)N(Cc2ccco2)C2CCN(CCc3ccccn3)CC2)cc1` it was inactive: -101%; in that of `COc1ccc(CCN2CCC(N(Cc3cccnc3)C(=O)c3cccc(C#N)c3)CC2)cc1`, inactive: -93.8%; in that of `O=C(c1ccc2c(c1)OCO2)N(Cc1ccco1)C1CCN(CCc2ccccn2)CC1`, inactive: -75.8%. In the case of `O=C(COC(=O)C(O)(c1ccccc1)c1ccccc1)NCc1ccc2c(c1)OCO2` it was inactive: -23.6%; in that of `N#Cc1cccc(C(=O)N(Cc2ccco2)C2CCN(CCc3ccc(Cl)cc3)CC2)c1`, inactive: -58.3%. In the case of `Cc1[nH]c2c(N(C(=O)Nc3ccccc3)C3CCN(Cc4ccccc4)CC3)cccc2c1C` it was inactive: -30.9%.
